# Values joined by “and” are separate entries in the source; they are usually repeats but may differ in a detail not shown here. Equal entries are not always repeated. Only a part is listed here, and it is no random draw.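 Note: values are percent growth. 100 is the growth of untreated cells, values between 100 and 0 indicate rising inhibition; between -100 and 0 indicates cell death.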 Active and inactive are the calls of the source. How the source made its calls: active means growth percent below 10; inactive means the rest.
# Tested on: MDA-MB-468 breast
# Experiment: NCI-60 one-dose screen, 48 h (100 = growth as untreated, 0 = no growth, -100 = all killed)
# Details: 10 µM
row,SMILES,growth
1,CCOP(=O)(CC)OCC,inactive: 97.5%
2,CCN(CC)CCOC(=O)C(O)(c1ccccc1)c1cc(C)cc(C)c1C (stereo not given),inactive: 97%
3,CN(Cc1cccnc1)C(=O)COc1ccc(Cl)c(Cl)c1.O=[N+]([O-])c1cc([N+](=O)[O-])c(O)c([N+](=O)[O-])c1,inactive: 94.1%
4,CN(C)Nc1c([N+](=O)[O-])cc([N+](=O)[O-])cc1[N+](=O)[O-],inactive: 81.2%
5,CN1CCN(CCOC(=O)C(O)(c2ccccc2)c2ccccc2)CC1,inactive: 96.4%
6,CN(C)CCS,inactive: 97.9% and inactive: 97.4%
7,CCN(CC)CCS,inactive: 95.8%
8,COc1ccccc1-c1ccccn1.O=[N+]([O-])c1cc([N+](=O)[O-])c(O)c([N+](=O)[O-])c1,inactive: 105%
9,NN/C(N)=N/[N+](=O)[O-],inactive: 106%
10,O=[N+]([O-])OCC(O[N+](=O)[O-])C(CO[N+](=O)[O-])O[N+](=O)[O-] (stereo not given),inactive: 108%
11,Nc1cc([As](Cl)Cl)cc(N)c1O,inactive: 56.1%
12,O=[N+]([O-])c1cc([N+](=O)[O-])c(O)c([N+](=O)[O-])c1.c1ccnnc1,inactive: 94.6%
13,CC(C)N(CCCl)C(C)C,inactive: 103%
14,CC[N+](C)(CC)Cc1cc(Cc2ccccc2)ccc1OC(=O)N(C)C,inactive: 100%
15,O=[N+]([O-])OCCOc1ccc([N+](=O)[O-])cc1[N+](=O)[O-],inactive: 99.8%
16,N=C(N)N(N)[N+](=O)[O-],inactive: 101%
17,Cc1c([N+](=O)[O-])c(C)c([N+](=O)[O-])c(Nc2c([N+](=O)[O-])c(C)c([N+](=O)[O-])c(C)c2[N+](=O)[O-])c1[N+](=O)[O-],active: -6.94%
18,Cc1ccc(Nc2c([N+](=O)[O-])cc([N+](=O)[O-])cc2[N+](=O)[O-])cc1,inactive: 69.2%
19,CCN(C)CC.O=[N+]([O-])c1cc([N+](=O)[O-])c(O)c([N+](=O)[O-])c1,inactive: 109%
20,O=C(O)C1(O)c2ccccc2-c2ccccc21,inactive: 99.3% and inactive: 88.8%
21,O=C(Cl)c1c([N+](=O)[O-])cc([N+](=O)[O-])cc1[N+](=O)[O-],active: -68.2%
22,CCOC(=O)Nc1c([N+](=O)[O-])cc([N+](=O)[O-])cc1[N+](=O)[O-],inactive: 61.5%
23,CN(CCCl)CCCCCCCl,inactive: 94.2%
24,O=C1N([N+](=O)[O-])CCN1[N+](=O)[O-],inactive: 101%
25,O=[N+]([O-])c1ccc(Oc2c([N+](=O)[O-])cc([N+](=O)[O-])cc2[N+](=O)[O-])cc1,inactive: 93.1%
26,O=[N+]([O-])c1cc([N+](=O)[O-])c(C(F)(F)F)c([N+](=O)[O-])c1O,inactive: 98.1%
27,Cc1c([N+](=O)[O-])c(C)c([N+](=O)[O-])c(C)c1[N+](=O)[O-],inactive: 111%
28,CP(=S)(Cl)N(CCCl)CCCl (stereo not given),inactive: 95%
29,CNc1ccccc1.O=[N+]([O-])c1cc([N+](=O)[O-])c(O)c([N+](=O)[O-])c1,inactive: 100%
30,O=[N+]([O-])N(CCN(CC(Br)([N+](=O)[O-])[N+](=O)[O-])[N+](=O)[O-])CC(Br)([N+](=O)[O-])[N+](=O)[O-],inactive: 98.7%

# From PubChem BioAssay (NCI)
